Measurements taken from PubChem BioAssay AID1030 (National Center for Advancing Translational Sciences (NCATS), 2008).
The list shows a part of the results, in another mix than the full data. Records with an inconclusive call do not appear. Where a call stands in place of a potency, no number is given. Some structures show a salt or complex split into parts, the way the source records it. The source made the active and inactive calls. Calls follow the shape of the dose curve; as a rule, active = well fitted inhibition curve with a large enough effect (not every such curve was filed as active); inconclusive = small, poorly fitted or top-dose-only effect, or another doubt; inactive = no such curve, though single readings can be large or run the other way.

Amino acid sequences for entries named in this document (tags omitted).
UniProt P00352, whole entry: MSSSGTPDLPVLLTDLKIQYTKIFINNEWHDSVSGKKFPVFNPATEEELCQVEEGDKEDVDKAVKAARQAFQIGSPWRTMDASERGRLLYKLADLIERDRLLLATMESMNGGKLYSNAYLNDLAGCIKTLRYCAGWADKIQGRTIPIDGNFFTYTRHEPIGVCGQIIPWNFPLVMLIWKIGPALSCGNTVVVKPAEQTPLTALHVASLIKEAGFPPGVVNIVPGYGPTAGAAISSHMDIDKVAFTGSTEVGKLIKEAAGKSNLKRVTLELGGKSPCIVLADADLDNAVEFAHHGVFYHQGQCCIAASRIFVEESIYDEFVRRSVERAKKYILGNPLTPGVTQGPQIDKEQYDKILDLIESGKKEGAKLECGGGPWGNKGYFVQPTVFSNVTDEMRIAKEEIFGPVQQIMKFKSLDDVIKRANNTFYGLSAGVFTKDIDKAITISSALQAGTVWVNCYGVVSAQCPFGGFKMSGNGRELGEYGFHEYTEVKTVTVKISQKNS

Target: Aldehyde dehydrogenase 1A1 (Homo sapiens) (UniProt P00352)
Test: qHTS Assay for Inhibitors of Aldehyde Dehydrogenase 1 (ALDH1A1)
Details: Purified ALDH1A1, NADH fluorescence, propionaldehyde substrate; series mostly up to 75.3 µM
Potency is read from the fitted curve at half-maximal effect.

| Structure (SMILES) | Potency |
| --- | --- |
| CCN(CCCl)Cc1ccccc1C | inactive |
| CN(C)CCOC(=O)C(O)(c1ccccc1)C1CCCCC1 (centres undefined) | inactive |
| CCN(CC)CCCOC(=O)C(O)(c1ccccc1)C1CCCCC1 (centres undefined) | inactive |
| O=C(OCCN1CCN(CCOCc2ccccc2)CC1)C(O)(c1ccccc1)c1ccccc1 | inactive |
| CN(C)CCOC(=O)C(O)(c1ccccc1)C1CCCC1 (centres undefined) | inactive |
| CCN(CC)CC(O)COC(=O)C(O)(c1ccccc1)C1CCCCC1 (centres undefined) | inactive |
| [Au].[Au].c1ccc([PH+](c2ccccc2)c2ccccc2)cc1.c1ccc([PH+](c2ccccc2)c2ccccc2)cc1.n1n[nH]c(-c2nnn[nH]2)n1 | active: 1.78 µM |
| CCN(CC)CCCOC(=O)C(O)(c1ccccc1)c1ccccc1 | inactive |
| O=[N+]([O-])OCC(CO[N+](=O)[O-])(CO[N+](=O)[O-])CO[N+](=O)[O-] | active: 1.58 µM |
